This is an account of results in PubChem BioAssay AID493008 (The Scripps Research Institute Molecular Screening Center, 2010).

Each structure is given as a SMILES string. The list shows a part of the results, in another mix than the full data. The source made the active and inactive calls.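 The calls were made as follows: active = activation above the mean over all tested compounds plus 3 SD (cut at about 30% in these data); inactive = the rest.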

The target of the test is Troponin I, cardiac muscle (Homo sapiens) + Troponin T, cardiac muscle (Homo sapiens) + Troponin C, slow skeletal and cardiac muscles (Homo sapiens) (UniProt P19429+P45379+P63316). The experiment in a line: cardiac RTF calcium sensitivity activators, primary screen, biochemical, IANBD-TnC fluorescence, EC20 calcium (AID 493008).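 Also: rise in fluorescence read as greater calcium sensitivity of cardiac thin filaments.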 Particulars: IANBD-labeled TnC RTF fluorescence at EC20 calcium; at 7.2 µM; stronger effect = higher value; 0% EC20 calcium, 100% full calcium.
`c1ccc(CN2CCC(Nc3ccccc3)CC2)cc1`: the activation is inactive: 5.7%. In the case of `CCCN1CCC(Nc2cc(OC)cc(OC)c2)CC1` it was inactive: 4.04%.

With `Cc1cc(N(CCCl)CCCl)ccc1C=O`, the activation was inactive: -5.71%. In the case of `CN(C)C1(CNC(=O)c2cccc(C#N)c2)CCCCC1` it was inactive: -2.4%; in that of `CC(C)(C)OC(=O)N1CCC(N(C(=O)c2ccccc2)c2ccc(Cl)cc2)CC1`, inactive: -7.29%. Regarding `N#Cc1ccc(C(=O)NCC2(N3CCCCC3)CCCCC2)cc1`, the activation was inactive: 4.79%. With `N/C(=N\O)c1c(N)no[n+]1[O-]`, the activation is inactive: 0.57%.

Take `CCOC(=O)N1CCC(Nc2ccc(C)cc2)CC1`: the activation is inactive: -1.13%. Regarding `O=C(OC1CN2CCC1CC2)C1c2ccccc2C=Cc2ccccc21` (centres undefined), the activation was inactive: 4.47%. In the case of `O=C(NCC1(N2CCOCC2)CCCCC1)c1cc(Br)ccc1Cl` it was inactive: 5.67%; in that of `COc1cc(C(=O)NCC2(N3CCOCC3)CCCCC2)cc(OC)c1C`, inactive: -1.68%.

On to `COc1ccc(C(=O)NCC2(N3CCOCC3)CCCCC2)cc1OC`, for which the activation is inactive: 5.58%. For `CCC(CO)(C(=O)OC1CN2CCC1CC2)c1ccccc1` (centres undefined) the value was inactive: 2.11%; for `COc1cc(OC)cc(C(=O)NCC2(N3CCOCC3)CCCCC2)c1`, inactive: 4.77%; for `COc1cccc(C(=O)N(c2cc(C)cc(C)c2)C2CCN(C(=O)OC(C)(C)C)CC2)c1`, inactive: 7.18%. As to `CN1CCC(Nc2ccc(Cl)cc2)CC1`, the activation is inactive: -3.49%. Take `CCOc1ncccc1C(=O)NCC1(N2CCOCC2)CCCCC1`: the activation is inactive: 5.23%. As for `CN1CCC(Nc2ccc(F)c(Cl)c2)CC1`, the activation is inactive: 3.54%.

Take `CCCOc1ccc(C(=O)NCC2(N(C)C)CCCCC2)cc1`: the activation was inactive: 8.89%. For `CC(C)(C)OC(=O)N1CCC(Nc2ccccc2)CC1`, the activation is inactive: -0.66%.

With `O=C(O)C1(Nc2ccccc2)CCN(Cc2ccccc2)CC1`, the activation was inactive: -6.17%. For the compound `Cc1ccccc1NC1(C#N)CCN(Cc2ccccc2)CC1`, the activation is inactive: -0.56%. On to `CCN1CCC(Nc2cccc(F)c2)CC1`, for which the activation was inactive: 12.7%. Regarding `O=C(NCC1(N2CCCCC2)CCCCC1)c1ccco1`, the activation is inactive: -1.34%. In the case of `CN(C)c1ccc(C(=O)NCC2(N3CCCCC3)CCCCC2)cc1`, the activation was inactive: -1.95%. In the case of `Cn1c(=O)[nH]cc(N(CCCl)CCCl)c1=O` it was inactive: 4.18%; in that of `COc1cc(OC)cc(C(=O)NCC2(N3CCCCC3)CCCCC2)c1`, inactive: 1.37%. On to `CC(=O)N(c1ccccc1)C1CCNCC1`, for which the activation was inactive: -3.25%.

Take `Cc1ccc(NC2(C#N)CCN(Cc3ccccc3)CC2)cc1`: the activation was inactive: 6.13%. In the case of `Cc1ccc(C(=O)NCC2(N3CCCCC3)CCCCC2)o1` it was inactive: 9.96%; in that of `Fc1ccccc1NC1CCN(Cc2ccccc2)CC1`, inactive: 2.81%; in that of `CCOC(=O)N1CCC(Nc2cccc(C)c2)CC1`, inactive: 4.49%. In the case of `COc1cc(C(=O)NCC2(N(C)C)CCCCC2)ccc1OC(F)F` it was inactive: 3.67%; in that of `CCOc1ccc(C)cc1CN(CCCl)CCCl`, inactive: 7.74%. As to `O=C1CCN(Cc2ccccc2)CC1`, the activation is inactive: 8.26%. On to `O=P1(N(CCCl)CCCl)SCCCS1`, for which the activation is inactive: -7.33%.

On to `CCCCOc1ccc(C(=O)NCC2(N3CCOCC3)CCCCC2)cc1`, for which the activation is inactive: -5.81%. With `O=C(NCC1(N2CCCCC2)CCCCC1)c1ccc(F)cc1`, the activation is inactive: -2.86%.

Consider `COc1ccc(NC2CCN(CCc3ccccc3)CC2)c(OC)c1`, for which the activation is inactive: -3.32%. In the case of `CCOC(=O)N1CCC(Nc2ccc(F)cc2)CC1` it was inactive: -4.38%. Turning to `O=C(NCC1(N2CCOCC2)CCCCC1)c1cc2ccccc2o1`, the activation is inactive: -2.21%. Consider `O=C(NCC1(N2CCCCC2)CCCCC1)c1ccc(Cl)nc1`, for which the activation was inactive: 0.09%.

On to `Cc1cc(C)cc(N(C(=O)c2ccccc2)C2CCN(C(=O)OC(C)(C)C)CC2)c1`, for which the activation was inactive: 1.91%. In the case of `CCOC(=O)N1CCC(Nc2ccc(OC)cc2)CC1`, the activation is inactive: -6.46%. With `N#CC1(Nc2ccccc2)CCN(Cc2ccccc2)CC1`, the activation was inactive: -0.83%. In the case of `O=C(NCC1(N2CCCCC2)CCCCC1)c1ccc(Cl)s1`, the activation is inactive: 1.35%. In the case of `O=C(OC1CN2CCC1CC2)C1c2ccccc2Oc2ccccc21` (centres undefined), the activation is inactive: -3.21%. For `COc1ccc(Cl)cc1C(=O)NCC1(N2CCOCC2)CCCCC1` the value was inactive: -2.7%.

As to `O=C(NCC1(N2CCCCC2)CCCCC1)c1ccc(=O)[nH]c1`, the activation is inactive: 3%.

On to `O=C(NCC1(N2CCCCC2)CCCCC1)c1cccs1`, for which the activation was inactive: -0.71%. In the case of `COc1ccc(C(=O)NCC2(N3CCCCC3)CCCCC2)cc1`, the activation is inactive: -3.17%. On to `COc1ccc(C(=O)NCC2(N3CCCCC3)CCCCC2)c(OC)c1OC`, for which the activation was inactive: 2.18%. In the case of `CC(C)(C)OC(=O)N1CCC(N(C(=O)c2ccccc2)c2ccc(F)cc2)CC1` it was inactive: 4.32%; in that of `CSc1ccccc1C(=O)NCC1(N2CCCCC2)CCCCC1`, inactive: 5.03%; in that of `Cc1cccc(NC2(C#N)CCN(Cc3ccccc3)CC2)c1`, inactive: 4.14%.

`CN1CCC(Nc2cccc(F)c2)CC1`: the activation was inactive: -5.15%. In the case of `O=C(NCC1(N2CCCCC2)CCCCC1)c1cncc(Br)c1`, the activation is inactive: -3.19%. In the case of `CCCOc1ccc(C(=O)NCC2(N(C)C)CCCCC2)cc1OC`, the activation is inactive: 7.25%. In the case of `COc1ccc(CN(CCCl)CCCl)cc1Cl`, the activation is inactive: 3.78%. Take `CN(C)c1cccc(C(=O)NCC2(N3CCCCC3)CCCCC2)c1`: the activation is inactive: 3.51%. Consider `CC(C)c1ccc(NC2CCN(C(=O)OC(C)(C)C)CC2)cc1`, for which the activation was inactive: 5.6%. `COc1cc(OC)c(C(=O)NCC2(N(C)C)CCCCC2)cc1OC`: the activation was inactive: -4.85%. On to `O=C(NCC1(N2CCOCC2)CCCCC1)c1cc(F)c(F)cc1Cl`, for which the activation was inactive: -1.78%. Regarding `O=C(NCC1(N2CCCCC2)CCCCC1)c1cccc(C(F)(F)F)c1`, the activation was inactive: 0.55%. Take `CN1CCN(CCOC(=O)C(O)(c2ccccc2)c2ccccc2)CC1`: the activation was inactive: -1%. In the case of `COc1ccc(NC2CCN(C(=O)OC(C)(C)C)CC2)cc1`, the activation is inactive: 1.14%. For `CC(C)c1ccc(C(=O)NCC2(N3CCOCC3)CCCCC2)cc1` the value was inactive: -0.01%. In the case of `COc1cc(C(=O)NCC2(N3CCCCC3)CCCCC2)ccc1OC(F)F`, the activation is inactive: 5.6%. Consider `O=C(NCC1(N2CCOCC2)CCCCC1)c1cc(=O)[nH]c2ccccc12`, for which the activation is inactive: -0.04%. Regarding `O=C(NCC1(N2CCCCC2)CCCCC1)c1ccc(OC(F)F)cc1`, the activation is inactive: 4.66%.

Turning to `CSc1ccc(C(=O)NCC2(N3CCOCC3)CCCCC2)cc1`, the activation was inactive: -9.14%. Take `O=C(NCC1(N2CCCCC2)CCCCC1)c1cccc([N+](=O)[O-])c1`: the activation is inactive: 1.05%. In the case of `CCN1CCC(Nc2ccc(Cl)cc2)CC1` it was inactive: -0.07%; in that of `N#CC1(Nc2ccccc2)CCN(CCc2ccccc2)CC1`, inactive: 1.61%.
